How the values were obtained:
[1] = TNBS-induced colitis, body weight and macroscopic damage; conditions: TNBS 100 mg/kg rectally in 40% ethanol, vs buffer-injected and normal mice
ghrelin mRNA = experiment: TNBS-induced colitis, colonic ghrelin mRNA by quantitative real time PCR; conditions: colon, one day after TNBS infusion (100 mg/kg, rectal)

O=[N+]([O-])c1cc([N+](=O)[O-])c(S(=O)(=O)O)c([N+](=O)[O-])c1
body weight, diarrhea, macroscopic damage [1]: typical weight loss, diarrhea and severe ulceration | levels of ghrelin mRNA increased as compared to the control (ghrelin mRNA): 2.4 fold

— patent publication US20070025991A1, “Use of antagonists of ghrelin or ghrelin receptor to treat intestinal inflammation” (priority 2003, published 2007)
